The values that follow come from US20130189186A1, “APOPTOSIS IMAGING AGENTS BASED ON LANTIBIOTIC PEPTIDES” (GE HEALTHCARE LIMITED, priority 2010, published 2013).

The target in the experiment is phosphatidyl ethanolamine. The experiment can be described thus: Biacore affinity for phosphatidyl ethanolamine (POPE/POPC liposomes captured on L1 chip). Type of experiment: binding. The note with it: Biacore 3000, L1 chip, POPE/POPC liposomes (20% PE). From the text:
A Biacore 3000 (GE Healthcare, Uppsala) was equipped with an L1 chip. Liposomes made of POPE/POPC (20% PE) were applied for the affinity study using the capture technique recommended by the manufacturer. Each run consisted of activation of the chip surface, immobilization of liposomes, binding of peptide and wash off of both liposomes and peptide (regeneration). Similar applications can be found in Frostell-Karlsson et al [Pharm. Sciences, V.94 (1), (2005)]. Thorough washing of needle, tubing and liquid handling system with running buffer was performed after each cycle.
BIACORE software: The BIACORE control software including all method instructions was applied. A method with commands was also written in the BIACORE Method Definition Language (MDL) to have full control over pre-programmed instructions. BIACORE evaluation software was applied for analysing the sensorgrams. […] The KD for all substances was less than 100 nM.
Background: Surface plasmon resonance follows binding to a sensor surface in real time, without labels.

As usually defined, the Kd is the equilibrium constant for the complex coming apart. For Duramycin, the Kd is ~5 nM and the “kd” value is ~8e-05 s⁻¹.
